This note sets out measurements from patent US20260193317A1, “COMBINATION THERAPY WITH ACTRIIB RECEPTOR VARIANTS AND GLP-1 AGONISTS” (35PHARMA Inc., priority 2023, published 2026).

The target in the assay is T1, GIP receptor (GIPR) (Homo sapiens, UniProt P48546).
T1 construct: host or cells: CHO-K1
T1 sequence (P48546 22-466): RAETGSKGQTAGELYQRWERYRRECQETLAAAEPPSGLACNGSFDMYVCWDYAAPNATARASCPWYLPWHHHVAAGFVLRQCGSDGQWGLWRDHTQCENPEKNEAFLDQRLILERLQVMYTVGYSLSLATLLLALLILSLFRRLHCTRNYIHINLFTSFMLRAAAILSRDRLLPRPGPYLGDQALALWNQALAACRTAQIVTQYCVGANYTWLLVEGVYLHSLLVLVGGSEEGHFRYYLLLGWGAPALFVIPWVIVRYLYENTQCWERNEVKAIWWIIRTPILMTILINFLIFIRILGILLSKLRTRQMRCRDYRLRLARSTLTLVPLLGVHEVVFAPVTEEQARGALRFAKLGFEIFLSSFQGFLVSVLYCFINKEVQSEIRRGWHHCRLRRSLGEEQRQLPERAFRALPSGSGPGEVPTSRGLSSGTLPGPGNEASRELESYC
The experiment in a line: GIP receptor activation in CHO-K1 cells stably overexpressing GIPR. The following applies: retatrutide formulations, 20 mM NaPO4, glycine, sucrose, histidine pH 7.5, read-out: CBA potency GIPR. In kind it is cell-based. As to the method:
These reporter cells were purchased from Genscript (Piscataway, NJ, cat #M00451) and were maintained following the manufacturer's instructions. […] Once the cells reached 70-80% confluence, they were detached using trypsin. For all assays, cells were seeded in clear-bottom, opaque 96-well plates at a density of 10,000 cells per well in growth medium. Cells were left to attach for 10 minutes at room temperature prior to being transferred to a 37° C. incubator (5% CO2) overnight. The next day, cells were treated with incretin mimetics to assess intracellular cAMP accumulation, using the cAMP-GloTM Max Assay from Promega (Madison, WI, cat #V1682) following the manufacturer's instructions. Briefly, cells were starved in […] modified) medium (no additional supplements) for 2 hours at 37° C. incubator (5% CO2). […] Medium was removed from the culture plates, and cells were treated with the appropriate mixes of incretin mimetics. Treatment duration was for 30 min at 37° C. (5% CO2). All treatments were performed in technical duplicates and at least two independent experiments were conducted for each incretin mimetic. Cells were lyzed for 20 minutes at room temperature (150 rpm) using the kit's buffer. Following the kit's instructions, luciferin was then added for 10 minutes at room temperature (in the dark), following which luminescence was assessed. The data were plotted in GraphPad Prism, which was used to calculate IC50 values as a non-linear regression. […] These reporter cells were purchased from Genscript (Piscataway, NJ, cat #M00486). The same methodology described above was applied for these cells.

Like-named read-outs stand apart in the source and are kept apart here.

In the case of `CC[C@H](C)[C@H](NC(=O)[C@H](Cc1ccccc1)NC(=O)[C@H](C)NC(=O)C(C)(C)NC(=O)[C@H](CCC(N)=O)NC(=O)[C@H](C)NC(=O)[C@H](CCCCNC(=O)COCCOCCNC(=O)CC[C@H](NC(=O)CCCCCCCCCCCCCCCCCCC(=O)O)C(=O)O)NC(=O)[C@H](CCCCN)NC(=O)[C@H](CC(=O)O)NC(=O)[C@H](CC(C)C)NC(=O)[C@](C)(CC(C)C)NC(=O)[C@@H](NC(=O)[C@H](CO)NC(=O)[C@H](Cc1ccc(O)cc1)NC(=O)[C@H](CC(=O)O)NC(=O)[C@H](CO)NC(=O)[C@@H](NC(=O)[C@H](Cc1ccccc1)NC(=O)[C@@H](NC(=O)CNC(=O)[C@H](CCC(N)=O)NC(=O)C(C)(C)NC(=O)[C@@H](N)Cc1ccc(O)cc1)[C@@H](C)O)[C@@H](C)O)[C@@H](C)CC)C(=O)N[C@@H](CCC(=O)O)C(=O)N[C@@H](Cc1ccc(O)cc1)C(=O)N[C@@H](CC(C)C)C(=O)N[C@@H](CC(C)C)C(=O)N[C@@H](CCC(=O)O)C(=O)NCC(=O)NCC(=O)N1CCC[C@H]1C(=O)N[C@@H](CO)C(=O)N[C@@H](CO)C(=O)NCC(=O)N[C@@H](C)C(=O)N1CCC[C@H]1C(=O)N1CCC[C@H]1C(=O)N1CCC[C@H]1C(=O)N[C@@H](CO)C(N)=O` [Retatrutide alone], the EC50 (D 14, RT) amounted to 1.2 pM; the EC50 (D 28, 2-8° C.) worked out at 1.1 pM; the EC50 (D 28, RT) is 1.1 pM.
